In patent US20160095823A1, “METHODS OF USING PROPOFOL DERIVATIVES FOR ANALGESIA” (priority 2005, published 2016):

Columns and labels:
[1] = molecular target: T1, α1 homomeric glycine receptors (Rattus norvegicus, UniProt P07727); experiment: Direct activation of Cl- inward currents (agonist applied alone), whole-cell patch clamp, HEK 293; format: cell-based
T1 construct: expressed in transfected cells; host or cells: HEK 293, transient electroporation, cDNA in pCIS2, GFP cDNA co-transfected as marker
T1 sequence (P07727 29-457): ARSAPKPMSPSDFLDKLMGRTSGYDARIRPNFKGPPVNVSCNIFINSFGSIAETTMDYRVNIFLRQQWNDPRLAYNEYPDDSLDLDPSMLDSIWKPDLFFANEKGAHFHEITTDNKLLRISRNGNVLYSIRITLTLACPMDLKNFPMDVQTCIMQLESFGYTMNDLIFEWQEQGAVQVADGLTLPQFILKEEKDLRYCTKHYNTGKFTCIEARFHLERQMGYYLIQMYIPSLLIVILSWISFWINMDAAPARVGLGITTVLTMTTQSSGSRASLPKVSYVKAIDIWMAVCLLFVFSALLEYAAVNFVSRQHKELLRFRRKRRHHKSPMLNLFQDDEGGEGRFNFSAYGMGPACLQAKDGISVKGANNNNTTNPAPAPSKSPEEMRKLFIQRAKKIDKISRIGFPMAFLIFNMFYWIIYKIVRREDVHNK
Procedure: (§1) Reduced sensitivity to 1000 μM picrotoxin in α1β heteromeric receptors was used as an assay of the efficacy of β subunit expression. Cells were cultured in Dulbecco's modified Eagle's medium (DMEM, Biochrom, Berlin, Germany), supplemented with 10% fetal calf serum (FCS, Biochrom, Berlin, Germany), 100 U ml^−1 penicillin and 100 μg ml^−1 streptomycin at 37° C. in a 5% CO2/air incubator. For transfection, cells were suspended in a buffer containing 50 mM K2HPO4 and 20 mM K-acetate, pH 7.35. […] To visualize transfected cells, they were co-transfected with cDNA of green fluorescent protein (GFP 10 μg ml^−1). For transfection, we used an electroporation device by EquiBio (Kent, UK). Transfected cells were replated on glass-coverslips and incubated 15-24 h before recording.
(§2) Standard whole-cell experiments (Hamill et al., (1981) Pflügers Arch., 391, 85-100.) were performed at −30 mV membrane potential. A tight electrical seal of several GΩ formed between the cell membrane and a patch-clamp electrode allows inward currents due to agonist-induced channel activation to resolve in the pA range. Electrical resistance of the pipettes was around 5 MΩ, corresponding to a total access resistance in the whole-cell configuration of about 10 MΩ. […]

[2] = molecular target: T2, α1β heteromeric glycine receptors (Rattus norvegicus, UniProt P07727); experiment: as above; format: cell-based
T2 construct: expressed in transfected cells; host or cells: HEK 293, transient electroporation, α:β cDNA 1:10, pCIS2 vector
Procedure: as §1, §2

## NCC(=O)O [glycine]
[1]
  EC50: 12.8 ± 2.3 µM
[2]
  EC50: 47 ± 14 µM
